Measured values as given in PubChem BioAssay AID1430 (University of Pittsburgh Molecular Library Screening Center, 2008).
The list shows a part of the results, in another mix than the full data. Some tests of the compounds listed are not included; inactive here does not mean inactive elsewhere. The source made the active and inactive calls.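 The calls were made as follows: active = inhibition of 50% or more in the single-dose primary screen; inactive = inhibition below 50%.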

system: hexokinase 1 [Trypanosoma brucei]; test: TbHK1 enzyme activity blockers – biochemical, G6PDH-coupled NADH absorbance, MLSCN library, primary screen (AID 1430); settings: recombinant TbHK1, G6PDH-coupled NADH A340; at 10 µM; hits give high values

Row | Compound | inhibition
1 | CC(C)N1C(=O)CC2(CCN(CCOC(=O)C(O)(c3ccccc3)c3ccccc3)CC2)C1=O | inactive: -4.89%
2 | CCN(CC)CC(C)C(C)OC(=O)C(O)(c1ccccc1)c1ccccc1 (stereo unspecified) | inactive: -2.92%
3 | O=C(NCC1(N2CCCCC2)CCCCC1)c1cc([N+](=O)[O-])ccc1Cl | inactive: -0.158%
4 | C=CCN1CCN(CCOC(=O)C(O)(c2ccccc2)c2ccccc2)CC1 | inactive: -12.6%
5 | CCN1CCCC(OC(=O)C2(O)c3ccccc3C=Cc3ccccc32)C1 (stereo unspecified) | inactive: 7.92%
6 | CN(C)C1CCCC1OC(=O)C(O)(c1ccccc1)c1ccccc1 (stereo unspecified) | inactive: 4.33%
7 | Cc1ccccc1C(=O)NCC1(N2CCCCC2)CCCCC1 | inactive: 7.71%
8 | COc1cccc(C(=O)NCC2(N3CCCCC3)CCCCC2)c1 | inactive: 0.466%
9 | COc1ccc(Br)c(C(=O)NCC2(N3CCCCC3)CCCCC2)c1 | inactive: -1.55%
10 | CN(C)c1cccc(C(=O)NCC2(N(C)C)CCCCC2)c1 | inactive: -0.883%
11 | O=C(OC1CN2CCC1CC2)C(CO)(c1ccccc1)c1ccccc1 (stereo unspecified) | inactive: 1.94%
